Laboratory results: patent US20220218639A1

Tests used:
δ-plasmin = target: T1, δ-plasmin (Homo sapiens, UniProt P00747, DEL181-559); experiment: S-2251 inhibition assay (Dixon plot), δ-plasmin; format: biochemical; conditions: S-2251 100, 350, 750 μM, enzyme 1.0 μg/mL, PBS pH 7.4, unit inferred
T1 construct: made in house; host or cells: E. coli (T7 expression system, pET 24b(+))

plasmin = plasmin (Homo sapiens, UniProt P00747); experiment: S-2251 inhibition assay (Dixon plot), plasmin; format: biochemical; design: purchased Sigma-Aldrich; conditions: S-2251 100, 350, 750 μM, enzyme 1.0 μg/mL, PBS pH 7.4, unit inferred
Experimental: Enzyme Kinetic and Inhibition Assays. All enzymatic assays were conducted in phosphate buffered saline (PBS, pH 7.4) at 25° C. on a Molecular Devices SpectraMax Plus 96 well plate reader. The S-2251 assay took advantage of a shift in absorbance of the substrate upon cleaving that could be monitored at a wavelength of 405 nm to determine enzyme kinetics as well as competitive inhibition Ki values for plasmin and its derivatives. KM, Vmax and Kcat were determined using a Lineweaver-Burke plot in which the concentration of plasmin (1.0 μg/mL) was held constant across a range of S-2251 substrate concentrations (0-750 μM) where the y-intercept=1/Vmax and slope=KM/Vmax. Initial velocities were determined by the slope of the first 60 seconds of reaction with the S-2251 substrate. […]
Inhibition Assays: Inhibition assays were carried out at a fixed plasmin concentration in the presence of a range of small molecule inhibitor concentrations from (0-1500 μM) and at least three different S-2251 substrate concentrations ranging from (0-750 μM). Ki values for both full length/native plasmin (sigma plasmin) and delta-plasmin for the small molecule inhibitors and nanoparticles were calculated based on the x-axis value at the negative intersection point of the inhibition curves at the different S-2251 substrate concentrations at a constant plasmin concentration. […]

N=C(N)c1ccccc1 [Benzamidine]
Ki (δ-plasmin): 161 ± 11.7 µM | Ki (plasmin): 32.2 ± 3 µM
